Data reported in ChEMBL document CHEMBL4196131 (J Med Chem, 2018).

Columns and labels:
Homo sapiens [1] = organism: Homo sapiens; experiment: Ratio of Ki for human ERbeta LBD to Ki for human ERalpha LBD
Homo sapiens [2] = organism: Homo sapiens; experiment: Ratio of relative binding affinity for human ERalpha LBD to relative binding affinity to human ERbeta LBD

- Ratio Ki (Homo sapiens [1]): 2.11
- Ratio (Homo sapiens [2]): 1.78
Structure (SMILES): COc1cc(/C=C/c2ccc(OS(=O)(=O)C3CC4OC3C(c3ccc(O)cc3)=C4c3ccc(O)cc3)cc2)cc(OC)c1 (configuration not stated)
